Laboratory results reported in PubChem BioAssay (NCI).
“And” between values parts separate entries of the source, which are not always exact repeats. Equal entries are not always repeated. The list shows a part of the results, in another mix than the full data.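 Compound tested at a single concentration for 48 hours in 96-well plates; a percent growth value below 10 was scored as active.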 The source made the active and inactive calls.

What was measured:
Assay in all cases: NCI-60 one-dose screen, 48 h (100 = growth as untreated, 0 = no growth, -100 = all killed)
Settings in all cases: 10 µM
NCI/ADR-RES ovarian = system: NCI/ADR-RES ovarian
T-47D breast = system: T-47D breast
BT-549 breast = system: BT-549 breast
MDA-MB-435 melanoma = system: MDA-MB-435 melanoma
SW-620 colon = system: SW-620 colon
MCF7 breast = system: MCF7 breast
HCT-116 colon = system: HCT-116 colon
HCC-2998 colon = system: HCC-2998 colon
KM12 colon = system: KM12 colon

Measured: growth

CN(C)Nc1c([N+](=O)[O-])cc([N+](=O)[O-])cc1[N+](=O)[O-]
inactive: NCI/ADR-RES ovarian 105% | T-47D breast 93.1% | BT-549 breast 92.4% | MDA-MB-435 melanoma 107% | SW-620 colon 125% | MCF7 breast 87.9% | HCT-116 colon 94.5% | HCC-2998 colon 111% | KM12 colon 94.8%

O=[N+]([O-])c1cc([N+](=O)[O-])c(O)c([N+](=O)[O-])c1.c1ccnnc1
inactive: NCI/ADR-RES ovarian 110% | T-47D breast 93.9% | BT-549 breast 101% | MDA-MB-435 melanoma 113% | SW-620 colon 93.9% | MCF7 breast 93.9% | HCT-116 colon 102% | HCC-2998 colon 103% | KM12 colon 110%

CCCCCCCOP(=O)(CC)OCCCCCCC
inactive: NCI/ADR-RES ovarian 105% | T-47D breast 85.9% | BT-549 breast 106% | MDA-MB-435 melanoma 99.5% | SW-620 colon 106% | MCF7 breast 92.3% | HCT-116 colon 101% | HCC-2998 colon 103% | KM12 colon 103%

O=[N+]([O-])c1ccc(OP2(=O)COCCO2)cc1 (centres undefined)
inactive: NCI/ADR-RES ovarian 99.4% | T-47D breast 98% | BT-549 breast 123% | MDA-MB-435 melanoma 110% | SW-620 colon 103% | MCF7 breast 104% | HCT-116 colon 103% | HCC-2998 colon 106% | KM12 colon 103%

Nc1cc([N+](=O)[O-])cc([N+](=O)[O-])c1O
inactive: NCI/ADR-RES ovarian 110% and 101% | T-47D breast 96.5% and 97.4% | BT-549 breast 100% | MDA-MB-435 melanoma 107% and 105% | SW-620 colon 132% and 107% | MCF7 breast 96.6% and 94% | HCT-116 colon 97.9% and 95.8% | HCC-2998 colon 103% and 101% | KM12 colon 98.4% and 108%

CCN(CC)CCOC(=O)C(O)(c1cc(C)cc(C)c1)c1cc(C)cc(C)c1
inactive: NCI/ADR-RES ovarian 101% | T-47D breast 86.9% | BT-549 breast 106% | MDA-MB-435 melanoma 105% | SW-620 colon 97.3% | MCF7 breast 97.7% | HCT-116 colon 97.7% | HCC-2998 colon 107% | KM12 colon 103%

Cc1c([N+](=O)[O-])c(C)c([N+](=O)[O-])c(Nc2c([N+](=O)[O-])c(C)c([N+](=O)[O-])c(C)c2[N+](=O)[O-])c1[N+](=O)[O-]
active: NCI/ADR-RES ovarian -6.57% | BT-549 breast -14.8% | MDA-MB-435 melanoma 1.33% | SW-620 colon 8.62% | MCF7 breast 0.861% | HCT-116 colon -57.6% | HCC-2998 colon -0.554% | KM12 colon 5.28%
inactive: T-47D breast 23.8%

COc1ccc(C(O)(C(=O)OCCN2CCCCC2)c2ccc(OC)cc2)cc1
inactive: NCI/ADR-RES ovarian 95.6% | T-47D breast 97.1% | BT-549 breast 111% | MDA-MB-435 melanoma 116% | SW-620 colon 104% | MCF7 breast 106% | HCT-116 colon 103% | HCC-2998 colon 93.4% | KM12 colon 83.2%

O=C1N([N+](=O)[O-])CCN1[N+](=O)[O-]
inactive: NCI/ADR-RES ovarian 103% | T-47D breast 121% | BT-549 breast 114% | MDA-MB-435 melanoma 101% | SW-620 colon 97.6% | MCF7 breast 85.8% | HCT-116 colon 105% | HCC-2998 colon 109% | KM12 colon 106%

O=C1C(O)=C([N+](=O)[O-])C(=O)C(O)=C1[N+](=O)[O-]
inactive: NCI/ADR-RES ovarian 105% | T-47D breast 108% | BT-549 breast 104% | MDA-MB-435 melanoma 107% | SW-620 colon 105% | MCF7 breast 103% | HCT-116 colon 100% | HCC-2998 colon 110% | KM12 colon 107%

Cc1c([N+](=O)[O-])cc([N+](=O)[O-])c(Br)c1[N+](=O)[O-]
active: T-47D breast -36.4% | SW-620 colon -77% | HCT-116 colon -100%
inactive: NCI/ADR-RES ovarian 79.9% | BT-549 breast 95.3% | MDA-MB-435 melanoma 63.1% | MCF7 breast 45.8% | HCC-2998 colon 97.4% | KM12 colon 94%

CC[N+]([O-])(CC)Cc1ccccc1.O=[N+]([O-])c1cc([N+](=O)[O-])c(S(=O)(=O)O)c([N+](=O)[O-])c1
inactive: NCI/ADR-RES ovarian 110% | T-47D breast 129% | BT-549 breast 112% | MDA-MB-435 melanoma 86% | SW-620 colon 100% | MCF7 breast 100% | HCT-116 colon 105% | HCC-2998 colon 102% | KM12 colon 107%

O=[N+]([O-])N(CCOC(N(F)F)(N(F)F)N(F)F)CC([N+](=O)[O-])([N+](=O)[O-])[N+](=O)[O-]
inactive: NCI/ADR-RES ovarian 104% | T-47D breast 97.6% | BT-549 breast 111% | MDA-MB-435 melanoma 103% | SW-620 colon 103% | MCF7 breast 96.2% | HCT-116 colon 106% | HCC-2998 colon 113%

O=C(O)C1(O)c2ccccc2-c2ccccc21
inactive: NCI/ADR-RES ovarian 99% and 99.6% | T-47D breast 86.4% and 105% | BT-549 breast 118% and 115% | MDA-MB-435 melanoma 103% | SW-620 colon 106% and 92.1% | MCF7 breast 102% | HCT-116 colon 91.4% and 92.9% | HCC-2998 colon 102% and 104% | KM12 colon 97.6% and 102%

CCOC(=O)CSc1c(N)c(C)nn1C.O=[N+]([O-])c1cc([N+](=O)[O-])c(O)c([N+](=O)[O-])c1
inactive: NCI/ADR-RES ovarian 105% | T-47D breast 102% | BT-549 breast 101% | MDA-MB-435 melanoma 96.8% | SW-620 colon 98.5% | MCF7 breast 94.9% | HCT-116 colon 108% | HCC-2998 colon 115% | KM12 colon 106%

CCOP(=O)(CC)OCC
inactive: NCI/ADR-RES ovarian 105% | T-47D breast 112% | BT-549 breast 105% | MDA-MB-435 melanoma 101% | SW-620 colon 96.5% | MCF7 breast 89.8% | HCT-116 colon 95.3% | HCC-2998 colon 108% | KM12 colon 116%

CN(Cc1cccnc1)C(=O)COc1ccc(Cl)c(Cl)c1.O=[N+]([O-])c1cc([N+](=O)[O-])c(O)c([N+](=O)[O-])c1
inactive: NCI/ADR-RES ovarian 102% | T-47D breast 89.3% | BT-549 breast 111% | MDA-MB-435 melanoma 107% | SW-620 colon 111% | MCF7 breast 87.6% | HCT-116 colon 111% | HCC-2998 colon 109% | KM12 colon 98.8%

O=[N+]([O-])c1cc([N+](=O)[O-])c(Oc2ccccc2)c([N+](=O)[O-])c1
inactive: NCI/ADR-RES ovarian 102% | T-47D breast 109% | BT-549 breast 104% | MDA-MB-435 melanoma 101% | SW-620 colon 110% | MCF7 breast 98.4% | HCT-116 colon 104% | HCC-2998 colon 109% | KM12 colon 110%

COc1ccccc1-c1ccccn1.O=[N+]([O-])c1cc([N+](=O)[O-])c(O)c([N+](=O)[O-])c1
inactive: NCI/ADR-RES ovarian 111% | T-47D breast 102% | BT-549 breast 97.8% | MDA-MB-435 melanoma 112% | SW-620 colon 104% | MCF7 breast 107% | HCT-116 colon 97.3% | HCC-2998 colon 109% | KM12 colon 105%

O=[N+]([O-])OCCOc1ccc([N+](=O)[O-])cc1[N+](=O)[O-]
inactive: NCI/ADR-RES ovarian 109% | T-47D breast 99.2% | BT-549 breast 108% | MDA-MB-435 melanoma 99.2% | SW-620 colon 105% | MCF7 breast 91.3% | HCT-116 colon 105% | HCC-2998 colon 106% | KM12 colon 114%

CP(=O)(OCCCl)N(CCCl)CCCl (centres undefined)
inactive: NCI/ADR-RES ovarian 104% | T-47D breast 88.5% | BT-549 breast 107% | MDA-MB-435 melanoma 98.3% | SW-620 colon 102% | MCF7 breast 100% | HCT-116 colon 98.3% | HCC-2998 colon 98.2% | KM12 colon 99%

CP(=O)(OCCCCl)N(CCCl)CCCl (centres undefined)
inactive: NCI/ADR-RES ovarian 108% | T-47D breast 101% | BT-549 breast 110% | MDA-MB-435 melanoma 107% | SW-620 colon 107% | MCF7 breast 94.4% | HCT-116 colon 105% | HCC-2998 colon 102% | KM12 colon 112%

O=[N+]([O-])c1ccc(Oc2c([N+](=O)[O-])cc([N+](=O)[O-])cc2[N+](=O)[O-])cc1
inactive: NCI/ADR-RES ovarian 104% | T-47D breast 113% | BT-549 breast 117% | MDA-MB-435 melanoma 99.4% | SW-620 colon 103% | MCF7 breast 87.4% | HCT-116 colon 102% | HCC-2998 colon 102% | KM12 colon 107%

CN1CCN(CCOC(=O)C(O)(c2ccccc2)c2ccccc2)CC1
inactive: NCI/ADR-RES ovarian 93.1% | T-47D breast 100% | BT-549 breast 103% | MDA-MB-435 melanoma 102% | SW-620 colon 97.1% | MCF7 breast 93.2% | HCT-116 colon 99.7% | HCC-2998 colon 83.6% | KM12 colon 93.1%

CCOC(=O)Nc1c([N+](=O)[O-])cc([N+](=O)[O-])cc1[N+](=O)[O-]
inactive: NCI/ADR-RES ovarian 97.1% | T-47D breast 70.8% | BT-549 breast 104% | MDA-MB-435 melanoma 103% | SW-620 colon 107% | MCF7 breast 73.1% | HCT-116 colon 100% | HCC-2998 colon 102% | KM12 colon 109%
